Our source for the Kd values is article PMC12144310, “TANGO2 binds crystallin alpha B and its loss causes desminopathy” (Nature Communications, 2025).

The structures appear in SMILES notation.

Broadly, the Kd is a measure of binding affinity in units of concentration. A high value points to a looser complex.

The assay concerns the target T1, TANGO2 (Homo sapiens, UniProt Q6ICL3).
T1 construct: labelled with RED-tris-NTA
T1 sequence (Q6ICL3 1-276): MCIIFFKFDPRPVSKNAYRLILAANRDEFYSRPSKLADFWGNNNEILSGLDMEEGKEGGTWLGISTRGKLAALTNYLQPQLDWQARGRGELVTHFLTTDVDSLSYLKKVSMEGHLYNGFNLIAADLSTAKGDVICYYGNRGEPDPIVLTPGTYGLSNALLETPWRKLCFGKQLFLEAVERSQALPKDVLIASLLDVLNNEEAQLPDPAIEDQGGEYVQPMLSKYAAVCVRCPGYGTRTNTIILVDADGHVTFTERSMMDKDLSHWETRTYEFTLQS
The assay is described as follows: microscale thermophoresis (MST). Format: binding.

`C=CC1=C(C)C2=Cc3c(C=C)c(C)c4[n]3[Fe]([Cl])[n]3c(c(C)c(CCC(=O)O)c3=CC3=NC(=C4)C(C)=C3CCC(=O)O)=CC1=N2` [hemin] gave a Kd of 43 µM.
